Literature values in US20050192221A1, “Methods and compositions related to plunc polypeptides” (priority 2003, published 2005).

Experiments:
[1] = test system: Bordetella parapertussis; set-up: unit not given beside the values; conditions: cited from earlier work
[2] = test system: Staphylococcus coagulase f; set-up: MIC90: unit not given beside the values; conditions: cited from earlier work
[3] = Staphylococcus coagulase f (non β-lactamase producer)
[4] = Staphylococcus coagulase f (β-lactamase producer)

For `CC[C@H]1OC(=O)[C@H](C)[C@@H](O[C@H]2C[C@@](C)(OC)[C@@H](O)[C@H](C)O2)[C@H](C)[C@@H](O[C@@H]2O[C@H](C)C[C@H](N(C)C)[C@H]2O)[C@](C)(O)C[C@@H](C)C(=O)[C@H](C)[C@@H](O)[C@]1(C)O` [ERYTHROMYCIN, erythromycin], the MIC90 [1] is given as 0.25, the MIC90 [2, 3] is given as 0.25 and the “Range (of MIC)” value [2, 3] is given as 0.03-8. The MIC90 [2, 4] was 4 and the “Range (of MIC)” value [2, 4] was 0.06-16.

Read-outs that look alike come from different tables or passages of the source.
